Data as given in patent US20220257631A1, “THERAPEUTIC RNA FOR OVARIAN CANCER” (BIONTECH SE, priority 2019, published 2022).

Experiments:
[1] = mouse, in vivo, iv
[2] = DOTMA biodistribution, LC/MS

CCCCCCCC/C=C\CCCCCCCCOCC(C[N+](C)(C)C)OCCCCCCCC/C=C\CCCCCCCC (stereo not drawn) [DOTMA, 1,2-di-O-octadecenyl-3-trimethylammonium propane]
Time to delivery to the spleen [1]: in less than one hour
DOTMA in all other organs relative to spleen concentration ([2]; eight weekly injections): not more than 5%
DOTMA concentration relative to maximum ([2]; liver and spleen, within 20 days): about 50%
